{
  "source": "patent EP1056860B1",
  "target": "tumor-associated glycoprotein TAG-72 (human)",
  "experiment": "solid-phase assay on TAG-72 coated plates with 125I-labeled goat anti-human IgG, Scatchard analysis, mean of 7 analyses",
  "data": [
    {"substance": "chimeric CC49 antibody MuVH/MuVK (ATCC HB 9884)", "values": [
      {"measurement": "Ka", "result": "7.62e+09", "unit": "M⁻¹"}
    ]}
  ]
}
